Test results from patent US9885703B2, “Evaluation method and screening method for sphingosine-1-phosphate 1 (S1P1) receptor agonists” (MEIJI SEIKA PHARMA CO., LTD., priority 2013, dated 2018).

Sequences of proteins named here, by UniProt entry; tags and fusion partners are left off. Residues count along the entry.
UniProt P21453, whole entry: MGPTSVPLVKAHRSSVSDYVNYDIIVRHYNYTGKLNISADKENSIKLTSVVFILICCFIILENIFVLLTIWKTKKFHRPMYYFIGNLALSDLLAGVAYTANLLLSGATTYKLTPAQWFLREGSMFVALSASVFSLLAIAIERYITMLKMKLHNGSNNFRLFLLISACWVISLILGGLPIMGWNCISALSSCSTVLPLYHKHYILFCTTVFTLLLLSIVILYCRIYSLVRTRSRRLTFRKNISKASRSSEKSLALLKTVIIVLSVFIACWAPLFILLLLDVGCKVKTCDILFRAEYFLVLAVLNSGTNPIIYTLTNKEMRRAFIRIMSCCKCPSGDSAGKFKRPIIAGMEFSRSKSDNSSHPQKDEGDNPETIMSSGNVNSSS
UniProt P62873, 2-340 partner limits assumed: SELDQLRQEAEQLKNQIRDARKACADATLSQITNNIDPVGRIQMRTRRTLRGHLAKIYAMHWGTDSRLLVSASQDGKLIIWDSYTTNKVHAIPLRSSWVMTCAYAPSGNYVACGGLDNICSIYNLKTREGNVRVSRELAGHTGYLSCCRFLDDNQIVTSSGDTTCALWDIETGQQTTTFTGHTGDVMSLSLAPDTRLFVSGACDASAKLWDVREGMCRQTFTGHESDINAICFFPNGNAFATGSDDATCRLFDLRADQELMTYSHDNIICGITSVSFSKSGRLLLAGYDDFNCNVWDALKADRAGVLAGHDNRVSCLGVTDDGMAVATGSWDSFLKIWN
UniProt P59768, 2-68 partner limits assumed: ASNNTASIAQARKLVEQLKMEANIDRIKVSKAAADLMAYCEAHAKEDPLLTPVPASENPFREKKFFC
UniProt P08754, 2-354 partner limits assumed: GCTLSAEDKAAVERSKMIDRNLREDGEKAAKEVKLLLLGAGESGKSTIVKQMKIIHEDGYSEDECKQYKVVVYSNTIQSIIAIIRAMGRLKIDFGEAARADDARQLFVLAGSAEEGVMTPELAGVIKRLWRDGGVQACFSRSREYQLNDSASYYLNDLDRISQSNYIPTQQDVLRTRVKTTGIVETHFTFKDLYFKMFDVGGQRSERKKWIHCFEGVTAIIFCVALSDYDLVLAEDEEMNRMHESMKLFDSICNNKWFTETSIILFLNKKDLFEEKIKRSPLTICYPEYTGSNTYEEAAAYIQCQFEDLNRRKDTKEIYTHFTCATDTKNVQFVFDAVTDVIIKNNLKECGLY
UniProt P04899, 2-355 partner limits assumed: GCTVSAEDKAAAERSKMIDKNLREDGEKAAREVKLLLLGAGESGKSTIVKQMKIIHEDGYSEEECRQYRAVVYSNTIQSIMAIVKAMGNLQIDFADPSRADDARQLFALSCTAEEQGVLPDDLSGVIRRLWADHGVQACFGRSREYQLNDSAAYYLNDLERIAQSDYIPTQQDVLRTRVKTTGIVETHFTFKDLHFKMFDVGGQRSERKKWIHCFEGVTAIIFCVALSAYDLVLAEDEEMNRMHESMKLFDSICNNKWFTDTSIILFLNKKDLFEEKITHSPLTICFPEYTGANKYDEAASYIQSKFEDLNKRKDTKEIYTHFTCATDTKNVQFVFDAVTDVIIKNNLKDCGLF
UniProt P63096, 2-354 partner limits assumed: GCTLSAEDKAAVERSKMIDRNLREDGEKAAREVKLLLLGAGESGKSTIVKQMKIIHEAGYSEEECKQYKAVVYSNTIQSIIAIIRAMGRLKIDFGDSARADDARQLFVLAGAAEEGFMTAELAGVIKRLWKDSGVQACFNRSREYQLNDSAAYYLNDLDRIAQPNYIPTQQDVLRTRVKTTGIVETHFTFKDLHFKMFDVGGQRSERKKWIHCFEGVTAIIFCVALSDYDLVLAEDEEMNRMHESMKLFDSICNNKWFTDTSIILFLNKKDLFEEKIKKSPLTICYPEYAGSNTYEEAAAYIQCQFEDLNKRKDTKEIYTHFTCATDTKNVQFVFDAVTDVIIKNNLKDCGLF

Tests used:
[1] = Blood concentration in the guinea pig cardiotoxicity model; conditions: guinea pigs, 0.01 mg/kg infusion for 10 minutes
complete AV block = assay: Cardiotoxicity evaluation: AV block in guinea pigs under anesthesia; conditions: anesthetized guinea pigs, 0.01 mg/kg by infusion for 10 minutes, four cases
[2] = target: S1P1 receptor coupled to Gαi3 (Homo sapiens, UniProt P21453); assay: Gα subtype-specific S1P1 receptor agonist activity (BRET, NPL 7), HEK 293T cells co-expressing S1P1 receptor, Gαi3, Gγ2 and Gβ1; format: cell-based; conditions: read-out: EC50 S1P1-Gαi3, Gαi3 expressed
[3] = target: S1P1 receptor coupled to Gαi1 (Homo sapiens, UniProt P21453); assay: Gα subtype-specific S1P1 receptor agonist activity (BRET, NPL 7), HEK 293T cells co-expressing S1P1 receptor, Gαi1, Gγ2 and Gβ1; format: cell-based; conditions: read-out: EC50 S1P1-Gαi1, Gαi1 expressed
S1P1 receptor = S1P1 receptor (Homo sapiens, UniProt P21453); assay: General S1P1 receptor agonist activity, CHO cells expressing S1P1 receptor (method of Experimental Example 1 of PTL 1); format: cell-based; conditions: read-out: S1P1 receptor agonist activity, method of PTL 1
[4] = system: number of lymphocytic cells in blood; assay: Efficacy evaluation: number of lymphocytic cells in blood after oral administration; conditions: male SD rats
[5] = target: S1P1 receptor coupled to Gαi2 (Homo sapiens, UniProt P21453); assay: Gα subtype-specific S1P1 receptor agonist activity (BRET, NPL 7), HEK 293T cells co-expressing S1P1 receptor, Gαi2, Gγ2 and Gβ1; format: cell-based; conditions: read-out: EC50 S1P1-Gαi2, Gαi2 expressed

Q: Which “blood concentration after 1 hour” value ([1]; after 1 hour) does the source give for `CC(C)Oc1ccc(-c2cnc(-c3ccc(CN4CC(C(=O)O)C4)cc3)s2)cc1` here?
A: 27 nM

Q: What about the “blood concentration when the administration was completed” value ([1]; end of administration) of the same molecule?
A: 91 nM

Q: What about the “expression of complete AV block (cases)” value (complete AV block) of the same molecule?
A: no expression of complete AV block was observed in any one out of four cases

Q: And the EC50 [2]?
A: 19 nM

Q: What about the EC50 [3] of the same molecule?
A: 640 nM

Q: What about the EC50 (S1P1 receptor) of the same molecule?
A: 9.2 nM

Q: What about the “dose for suppressing the number of lymphocytic cells by 50% (ED50) after 6 hours” value ([4]; 6 hours) of the same molecule?
A: 0.17 mg/kg

Q: And the “dose for suppressing the number of lymphocytic cells by 50% (ED50) after 24 hours” value ([4]; 24 hours)?
A: 0.65 mg/kg

Q: What about the “effective blood concentration after 24 hours” value ([4]; 24 hours, calculated) of the same molecule?
A: 176 nM

Q: And the EC50 [5]?
A: 6 nM

Q: Which EC50 [2] does the source give for `CCCc1ccc(COc2ccc3c(c2)CCC(CN2CC(C(=O)O)C2)=C3C)c(OC)c1` here?
A: 85 nM

Q: What about the EC50 [3] of the same molecule?
A: 98 nM

Q: What about the EC50 (S1P1 receptor) of the same molecule?
A: 0.3 nM

Q: And the EC50 [5]?
A: 11 nM
